Paper PMC12337661, “PIEZO1 mechanical insensitivity in generalized lymphatic dysplasia with the potential for pharmacological rescue” (iScience, 2025)

Chains of the proteins cited; added tags and fusions are not shown.
UniProt E2JF22, whole entry I2286T: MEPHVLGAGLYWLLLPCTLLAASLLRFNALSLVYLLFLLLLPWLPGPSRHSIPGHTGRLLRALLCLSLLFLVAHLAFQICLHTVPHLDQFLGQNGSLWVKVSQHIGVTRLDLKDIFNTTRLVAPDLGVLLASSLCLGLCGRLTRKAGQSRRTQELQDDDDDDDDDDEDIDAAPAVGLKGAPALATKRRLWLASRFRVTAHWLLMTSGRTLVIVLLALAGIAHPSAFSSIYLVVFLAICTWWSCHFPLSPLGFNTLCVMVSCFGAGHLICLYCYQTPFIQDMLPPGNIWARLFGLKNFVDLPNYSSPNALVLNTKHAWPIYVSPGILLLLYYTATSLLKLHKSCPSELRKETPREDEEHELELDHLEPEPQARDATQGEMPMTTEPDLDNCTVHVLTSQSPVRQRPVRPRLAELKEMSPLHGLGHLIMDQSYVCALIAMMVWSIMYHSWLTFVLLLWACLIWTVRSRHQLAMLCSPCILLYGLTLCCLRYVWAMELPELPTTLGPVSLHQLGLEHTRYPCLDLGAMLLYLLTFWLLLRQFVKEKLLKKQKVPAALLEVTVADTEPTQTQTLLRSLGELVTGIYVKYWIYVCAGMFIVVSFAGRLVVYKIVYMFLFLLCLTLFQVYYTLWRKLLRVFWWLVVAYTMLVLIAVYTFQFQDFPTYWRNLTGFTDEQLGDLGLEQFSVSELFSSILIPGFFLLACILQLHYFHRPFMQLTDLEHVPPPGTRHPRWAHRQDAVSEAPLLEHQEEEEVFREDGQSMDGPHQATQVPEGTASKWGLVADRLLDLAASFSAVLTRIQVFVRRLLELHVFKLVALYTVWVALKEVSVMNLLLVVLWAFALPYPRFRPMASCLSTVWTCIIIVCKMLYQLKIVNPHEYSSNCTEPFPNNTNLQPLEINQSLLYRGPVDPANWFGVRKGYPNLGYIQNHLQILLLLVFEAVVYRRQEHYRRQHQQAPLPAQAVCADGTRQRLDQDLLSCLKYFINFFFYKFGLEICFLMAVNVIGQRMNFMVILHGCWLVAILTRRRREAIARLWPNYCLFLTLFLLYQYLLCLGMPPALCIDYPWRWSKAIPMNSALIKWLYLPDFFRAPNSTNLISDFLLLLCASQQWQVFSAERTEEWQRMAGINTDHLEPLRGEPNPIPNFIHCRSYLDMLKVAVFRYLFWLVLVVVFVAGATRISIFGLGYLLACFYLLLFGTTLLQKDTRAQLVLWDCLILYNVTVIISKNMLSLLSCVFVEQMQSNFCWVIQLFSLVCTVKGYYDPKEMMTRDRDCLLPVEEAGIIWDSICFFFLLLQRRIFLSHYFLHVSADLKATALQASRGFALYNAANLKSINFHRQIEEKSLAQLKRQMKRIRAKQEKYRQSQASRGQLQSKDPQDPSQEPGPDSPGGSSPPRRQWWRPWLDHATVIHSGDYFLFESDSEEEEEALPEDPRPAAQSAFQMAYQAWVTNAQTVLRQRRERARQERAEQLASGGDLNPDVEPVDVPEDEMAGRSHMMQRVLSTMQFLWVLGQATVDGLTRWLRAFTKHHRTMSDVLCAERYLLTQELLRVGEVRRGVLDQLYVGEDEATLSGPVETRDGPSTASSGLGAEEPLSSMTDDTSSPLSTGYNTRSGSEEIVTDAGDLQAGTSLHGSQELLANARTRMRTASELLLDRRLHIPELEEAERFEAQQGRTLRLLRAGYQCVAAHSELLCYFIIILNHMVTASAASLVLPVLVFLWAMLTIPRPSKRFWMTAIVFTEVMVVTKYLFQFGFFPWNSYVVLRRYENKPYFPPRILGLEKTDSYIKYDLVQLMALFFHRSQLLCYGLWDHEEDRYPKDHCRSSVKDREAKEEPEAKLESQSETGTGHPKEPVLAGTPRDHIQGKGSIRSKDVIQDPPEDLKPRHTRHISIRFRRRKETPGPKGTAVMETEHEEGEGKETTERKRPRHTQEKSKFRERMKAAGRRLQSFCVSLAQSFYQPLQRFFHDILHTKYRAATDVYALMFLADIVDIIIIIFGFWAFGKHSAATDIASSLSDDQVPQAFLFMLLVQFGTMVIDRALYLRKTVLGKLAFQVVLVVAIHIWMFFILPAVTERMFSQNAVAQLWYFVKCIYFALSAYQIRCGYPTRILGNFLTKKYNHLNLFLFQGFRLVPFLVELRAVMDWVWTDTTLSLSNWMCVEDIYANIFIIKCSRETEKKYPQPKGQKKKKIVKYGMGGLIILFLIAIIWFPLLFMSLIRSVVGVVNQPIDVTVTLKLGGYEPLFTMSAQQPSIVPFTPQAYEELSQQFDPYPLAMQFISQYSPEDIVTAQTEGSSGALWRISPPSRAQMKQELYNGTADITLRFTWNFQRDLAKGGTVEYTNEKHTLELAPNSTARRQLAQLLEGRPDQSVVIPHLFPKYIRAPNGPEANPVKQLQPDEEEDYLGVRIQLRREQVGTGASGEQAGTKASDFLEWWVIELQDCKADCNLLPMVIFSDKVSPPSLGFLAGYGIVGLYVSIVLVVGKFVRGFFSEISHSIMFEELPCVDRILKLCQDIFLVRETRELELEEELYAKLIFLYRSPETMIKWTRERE

Target: I2286T mPIEZO1 (Mus musculus, UniProt E2JF22, I2286T)
Experiment: Intracellular Ca2+ measurement (fura-2), T-REx-293 cells stably transfected
Conditions: time course 0-120 s, time (s) in the cell to the left, Figure 3f
Method: T-REx-293 cell line was transfected with pcDNA4/TO-mPIEZO1 constructs using Lipofectamine 2000 (Invitrogen) as above and treated with 200 μg.mL^−1 zeocin (InvivoGen) to select for stably transfected cells. At least two strongly expressing clonal cell lines were established and tested for each variant. All cell lines were maintained in Dulbecco’s Modified Eagle’s medium (Invitrogen) supplemented with 10% heat-inactivated fetal calf serum (Sigma-Aldrich), penicillin (50 units.mL^−1) and streptomycin (0.5 mg.mL^−1) (Sigma-Aldrich) and grown at 37°C in a humidified 5% CO2 incubator.
For intracellular Ca^2+ assays, cells were plated at 80–90% confluence in 96-well plates 24 h prior to recordings (6–8 × 10^4 cells per well). To measure intracellular Ca^2+, cells were incubated for 1 h at 37°C in standard bath solution (SBS) of composition 135 mM NaCl, 5 mM KCl, 1.2 mM MgCl2, 1.5 mM CaCl2, 8 mM glucose and 10 mM HEPES (pH titrated to 7.4 using NaOH) containing 2 μM fura-2-acetoxymethyl ester (fura-2-AM, Molecular Probes) with 0.01% weight/volume pluronic acid. Cells were washed with SBS and incubated at room temperature for 20 min prior to recordings. Equal volumes of 2x concentrated compounds were injected to test for acute channel activation. Pre-incubation with compounds occurred during the 20 min prior to recordings. To expose cell membranes to hypo-osmolality, an equal volume of hypotonic SBS (containing only 35 mM NaCl) was injected onto the cells. Measurements were made on a fluorescence plate reader (Flexstation III, Molecular Devices) at room temperature (21 ± 2°C). Fura-2 was excited at 340 nm and 380 nm and emitted light collected at 510 nm, with measurements shown as the change in fluorescence (F) ratio (ΔF340/380).
KC41 (Dooku1) was prepared as described.[28] All purchased chemicals and solvents were used without further purification unless otherwise stated. All compounds were at least 95% pure by 1H NMR. 1H Nuclear Magnetic Resonance spectra were recorded at 500 MHz using a Bruker DRX 500 instrument or at 400 MHz using a Bruker DPX 400. 1H spectra are referenced based on the residual proton in the solvent (e.g., the CHCl3, 0.01% in 99.99% CDCl3). Coupling constants (J) are reported to the nearest 0.1 Hz. 13C NMR spectra were recorded at 125 MHz on 500 MHz spectrometers or at 100 MHz on 400 MHz spectrometers. LC-MS was performed on a Bruker Daltronics running a gradient of increasing acetonitrile (5–95%) in H2O both containing 0.1% formic acid at 1 mL.min^−1, on a short path C18 reverse phase column, detecting compounds with both a diode array detector and a Bruker mass spectrum analyser. HRMS was performed on a Bruker Daltonics micrOTOF using positive electrospray ionisation (ES+). Automated column chromatograph was carried out using a Biotage Isolera Four, using either Sfär Silica D or KP-Silica cartridges. HPLC was performed on an Agilent 1290 Infinity Series equipped with a UV detector and Hyperprep C18 reverse phase column. Key to NMR abbreviations: s (singlet), br s (broad singlet) d (doublet), dd (doublet of doublets), ddd (doublet of doublets of doublets), t (triplet), dt (doublet of triples), q (quartet), m (multiplet), ap. t (apparent triplet). For experiments, Yoda1 and its analogues were prepared as 10 mM stock solutions in 100% dimethyl sulfoxide (DMSO) before serial dilution in DMSO and final dilution in aqueous solution. Cells were exposed to 0.1% DMSO for all concentrations of the compounds from 0 to 10 μM.

- fluorescence (Yoda1 0.03 µM, time 0 s): 0.00215
- fluorescence (Yoda1 0.03 µM, time 55 s): 0.02362
- fluorescence (Yoda1 0.1 µM, time 0 s): -0.00356
- fluorescence (Yoda1 0.1 µM, time 60 s): 0.01948
- fluorescence (Yoda1 0.1 µM, time 115 s): 0.02288
- fluorescence (Yoda1 0.3 µM, time 0 s): -0.01005
- fluorescence (Yoda1 0.3 µM, time 5 s): 0.00236
- fluorescence (Yoda1 0.3 µM, time 10 s): 0.01222
- fluorescence (Yoda1 0.3 µM, time 15 s): 0.01013
- fluorescence (Yoda1 0.3 µM, time 20 s): -0.01479
- fluorescence (Yoda1 0.3 µM, time 30 s): -0.215
- fluorescence (Yoda1 0.3 µM, time 35 s): -0.1069
- fluorescence (Yoda1 0.3 µM, time 40 s): 0.08375
- fluorescence (Yoda1 0.3 µM, time 45 s): 0.121
- fluorescence (Yoda1 0.3 µM, time 50 s): 0.1451
- fluorescence (Yoda1 0.3 µM, time 55 s): 0.1282
- fluorescence (Yoda1 0.3 µM, time 105 s): 0.07106
- fluorescence (Yoda1 1 µM, time 0 s): 0.00208
- fluorescence (Yoda1 1 µM, time 5 s): -0.00755
- fluorescence (Yoda1 1 µM, time 10 s): -0.00797
- fluorescence (Yoda1 1 µM, time 15 s): 0.0039
- fluorescence (Yoda1 1 µM, time 20 s): -0.00108
- fluorescence (Yoda1 1 µM, time 25 s): 0.01062
- fluorescence (Yoda1 1 µM, time 30 s): -0.3122
- fluorescence (Yoda1 1 µM, time 35 s): -0.1435
- fluorescence (Yoda1 1 µM, time 40 s): 0.1875
- fluorescence (Yoda1 1 µM, time 45 s): 0.321
- fluorescence (Yoda1 1 µM, time 50 s): 0.3615
- fluorescence (Yoda1 1 µM, time 100 s): 0.2708
- fluorescence (Yoda1 3 µM, time 5 s): 0.00612
- fluorescence (Yoda1 3 µM, time 55 s): 0.782
- fluorescence (Yoda1 3 µM, time 60 s): 0.7956
- fluorescence (Yoda1 3 µM, time 65 s): 0.8166
- fluorescence (Yoda1 3 µM, time 70 s): 0.8058
- fluorescence (Yoda1 3 µM, time 75 s): 0.7837
- fluorescence (Yoda1 3 µM, time 80 s): 0.754
- fluorescence (Yoda1 3 µM, time 85 s): 0.6951
- fluorescence (Yoda1 3 µM, time 90 s): 0.6727
- fluorescence (Yoda1 3 µM, time 95 s): 0.6738
- fluorescence (Yoda1 3 µM, time 100 s): 0.6585
- fluorescence (Yoda1 3 µM, time 105 s): 0.6319
- fluorescence (Yoda1 5 µM, time 0 s): 0.0063
- fluorescence (Yoda1 5 µM, time 55 s): 1.264
- fluorescence (Yoda1 5 µM, time 60 s): 1.335
- fluorescence (Yoda1 5 µM, time 65 s): 1.347
- fluorescence (Yoda1 5 µM, time 70 s): 1.32
- fluorescence (Yoda1 5 µM, time 75 s): 1.293
- fluorescence (Yoda1 5 µM, time 80 s): 1.215
- fluorescence (Yoda1 5 µM, time 85 s): 1.202
- fluorescence (Yoda1 5 µM, time 90 s): 1.154
- fluorescence (Yoda1 5 µM, time 95 s): 1.1194
- fluorescence (Yoda1 5 µM, time 100 s): 1.065
- fluorescence (Yoda1 5 µM, time 105 s): 1.057
- fluorescence (Yoda1 5 µM, time 110 s): 1.042
- fluorescence (Yoda1 5 µM, time 115 s): 0.9808
- fluorescence (Yoda1 5 µM, time 120 s): 0.94
- fluorescence (Yoda1 10 µM, time 0 s): 0.00662
- fluorescence (Yoda1 10 µM, time 50 s): 1.54
- fluorescence (Yoda1 10 µM, time 100 s): 1.671
SMILES: Clc1cccc(Cl)c1CSc1nnc(-c2cnccn2)s1 [Yoda1]
